Measurements reported in article PMC11154958, “Mechanism of Nitrone Formation by a Flavin-Dependent Monooxygenase” (Biochemistry, 2024).

Chains of the proteins cited; added tags and fusions are not shown. Lines headed by an entry give the natural chain unless they say otherwise; changes in a name come on top.
UniProt A0A1B2TT15, entry or part of it: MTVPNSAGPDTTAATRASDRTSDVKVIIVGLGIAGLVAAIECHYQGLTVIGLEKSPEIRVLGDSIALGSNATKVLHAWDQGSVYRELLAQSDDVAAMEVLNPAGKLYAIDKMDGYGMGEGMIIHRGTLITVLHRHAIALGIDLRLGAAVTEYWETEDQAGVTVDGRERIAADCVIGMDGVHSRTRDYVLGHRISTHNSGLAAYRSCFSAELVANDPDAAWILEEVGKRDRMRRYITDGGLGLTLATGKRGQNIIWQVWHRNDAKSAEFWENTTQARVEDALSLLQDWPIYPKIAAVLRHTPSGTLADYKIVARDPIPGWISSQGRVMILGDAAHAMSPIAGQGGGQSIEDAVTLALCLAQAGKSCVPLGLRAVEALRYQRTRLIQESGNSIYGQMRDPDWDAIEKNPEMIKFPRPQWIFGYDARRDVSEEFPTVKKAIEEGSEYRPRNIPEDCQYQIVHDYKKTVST

Experiments:
OxaD = OxaD (Penicillium oxalicum, UniProt A0A1B2TT15); details: read-out: KD(app)
OxaD D63A = OxaD D63A (Penicillium oxalicum, UniProt A0A1B2TT15, D63A); assay: Anaerobic stopped-flow, reductive-half reaction, D63A mutant; format: biochemical, Penicillium oxalicum F30; details: read-out: KD(app)
[1] = OxaD 10 μM, 10 μM roquefortine C, NAD(P)H 0.0625–4 mM

Row | Substance | Kd (OxaD; [1]) [µM] | Kd (OxaD; OxaD, No roquefortine C, not saturated at 4 mM NADPH) [µM] | Kd (OxaD D63A; D63A 10 μM, 10 μM roquefortine C) [µM] | Kd (OxaD D63A; D63A, No roquefortine C) [µM]
1 | NADPH | 520 ± 30 | ≥ 4000 | 1200 ± 300 | ≥ 4000
2 | NADH | 1600 ± 30 | – | – | –

Like-named read-outs stand apart in the source and are kept apart here.
